The results in this text go back to ChEMBL document CHEMBL4330119 (J Med Chem, 2019).

For assay [1], the system named is Mus musculus. Briefly: In vivo antagonist activity at MOR in sc dosed Swiss Webster mouse assessed reduction in morphine-induced antinociceptive effect by measuring morphine MPE preincubated for 5 mins followed by morphine addition and measured after 20 min post morphine challenge by tail immersion test. Type of assay: functional. An outline of the steps:
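Male Swiss Webster mice, 5 per group. […] Baseline latency 2–4 s, 10 s cutoff. %MPE calculated per mouse. AD50 by least-squares linear regression, 95% CI by Bliss method.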

Assay [2] has as its system Mus musculus. Briefly: Antinociceptive activity in Swiss Webster mouse at 10 mg/kg, sc measured after 20 min post dose by tail immersion test. Type of assay: functional, organism-based. The procedure, abridged:
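Male Swiss Webster mice, 7–8 weeks, 5 per group. Compound given sc, tail immersed in 56 ± 0.1 °C water 20 min later. Only mice with baseline latency of 2–4 s were used. 10 s cutoff. %MPE = [(test – control)/(10 – control)] × 100.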

The species entered for assay [3] is Mus musculus. Briefly: Selectivity ratio of Ki for mouse KOR expressed in CHO cell membranes to Ki for mouse MOR expressed in CHO cell membranes. Type of assay: cell-based. The procedure, abridged: (§1)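 Ratio of Ki values from competition binding: 30 μg CHO membranes in TME pH 7.4, filtration. IC50 converted to Ki by Cheng–Prusoff.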
Assay [4] is filed under the species Mus musculus. Nature of the assay: Selectivity ratio of Ki for mouse DOR expressed in CHO cell membranes to Ki for mouse MOR expressed in CHO cell membranes. Type of assay: cell-based. The procedure, abridged:
as §1

Active and inactive are the calls of the source.

On to `O=C(N[C@@H]1CC[C@@]2(O)[C@H]3Cc4ccc(O)c5c4[C@@]2(CCN3CC2CC2)[C@H]1O5)c1ccncc1F`, for which the inhibition result with Mus musculus [1] is “Dose-dependent effect”. In addition, the result with Mus musculus [2] was inactive. Moreover, the Ratio Ki in the assay filed under Mus musculus [3] worked out at 13.3; in the assay filed under Mus musculus [4] it was 436.
